High-throughput results (PubChem)
The list is not random: actives were taken first. Their share in the collection is about 1.8%.
RAD54 inh – inhibitors of human RAD54 branch migration, primary screen, biochemical, fluorescence, single point | DNA repair and recombination protein RAD54-like (Homo sapiens), Q92698 | RAD54 Holliday junction branch migration, FAM/BHQ fluorescence | inhibition, % at 10.4 µM | 0.14% of 360,000 active;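 active = mean normalized replicate activity at least 40 and at least half of replicates scoring 40 or more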;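 also: 0% = median of neutral control wells and 100% = median of positive control wells; inhibitors cause a drop in the FAM fluorescence signal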
SIRT5 inh – SIRT5 desuccinylase inhibitors, primary screen, biochemical, fluorescence imaging, single point, set 5. Purified SirT5, succinyl-peptide AMC, trypsin-coupled fluorescence. inhibition, % at 15 µM. 1.1% of 330,000 active; in the data active = inhibition above about 15%
AF4-AF9 inh – inhibitors of AF4 peptide binding to AF9, primary screen, biochemical, AlphaScreen, biotin-AF4 peptide, FLAG-AF9, single point. Protein AF-9 (Homo sapiens), P42568. inhibition, % at 10 µM. 0.47% of 350,000 active. AID 651704, 2012;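 active = every replicate reaching a set inhibition limit, whatever the replicate mean, cut at about 25% in these data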;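 also: 0% = plate neutral control median and 100% = total signal loss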
Yeast UUG start – alters start codon recognition fidelity in yeast; AID 602363; activity score, % at 18.7 µM; 350,000 tested, 0.13% active; S. cerevisiae UUG-firefly luciferase reporter, luminescence/redox ratio;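 active means replicate mean at a twofold rise or more, about +100% in these data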;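 further: firefly luciferase made from a UUG start codon reports start codon fidelity; reporter light over untreated wells divided by growth signal over untreated wells; some hits fall short of that in this replicate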
RAD52 anneal inh – RAD52 DNA annealing inhibitors, primary screen, biochemical, FRET, single point, set 2; 0.46% of 360,000 active; DNA repair protein RAD52 homolog (Homo sapiens), P43351; inhibition, % at 18.7 µM; recombinant RAD52 DNA annealing, FRET fluorescence;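 active = every replicate showing at least 50% inhibition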
E-selectin induc – E-selectin induction in HUVECs, primary screen, imaging, HUVEC, immunofluorescence imaging, single point. normalized: neutral wells 0, TNF-alpha wells 100. P16581. 0.37% of 260,000 active. activation, % at 7.58 µM;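 active = mean E-selectin-positive cell signal at least 10% of the positive control, reached in at least 60% of replicates, without over 20% cell loss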
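System: HUVEC, human umbilical vein endothelial cells; quantity: 3,000 cells/well; buffer or medium: EGM-2 medium, gelatin-coated wells; dosing: single-point compound dose; detection: immunofluorescence imaging; evaluation: % PE-positive cells; benchmarks: TNF-alpha, DMSO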
Active calls of the source: *; . = no result; ! = not active in a repeat.

Chains of the proteins cited; added tags and fusions are not shown.
DNA repair and recombination protein RAD54-like (Homo sapiens), Q92698, UniProt Q92698, whole entry, looked up: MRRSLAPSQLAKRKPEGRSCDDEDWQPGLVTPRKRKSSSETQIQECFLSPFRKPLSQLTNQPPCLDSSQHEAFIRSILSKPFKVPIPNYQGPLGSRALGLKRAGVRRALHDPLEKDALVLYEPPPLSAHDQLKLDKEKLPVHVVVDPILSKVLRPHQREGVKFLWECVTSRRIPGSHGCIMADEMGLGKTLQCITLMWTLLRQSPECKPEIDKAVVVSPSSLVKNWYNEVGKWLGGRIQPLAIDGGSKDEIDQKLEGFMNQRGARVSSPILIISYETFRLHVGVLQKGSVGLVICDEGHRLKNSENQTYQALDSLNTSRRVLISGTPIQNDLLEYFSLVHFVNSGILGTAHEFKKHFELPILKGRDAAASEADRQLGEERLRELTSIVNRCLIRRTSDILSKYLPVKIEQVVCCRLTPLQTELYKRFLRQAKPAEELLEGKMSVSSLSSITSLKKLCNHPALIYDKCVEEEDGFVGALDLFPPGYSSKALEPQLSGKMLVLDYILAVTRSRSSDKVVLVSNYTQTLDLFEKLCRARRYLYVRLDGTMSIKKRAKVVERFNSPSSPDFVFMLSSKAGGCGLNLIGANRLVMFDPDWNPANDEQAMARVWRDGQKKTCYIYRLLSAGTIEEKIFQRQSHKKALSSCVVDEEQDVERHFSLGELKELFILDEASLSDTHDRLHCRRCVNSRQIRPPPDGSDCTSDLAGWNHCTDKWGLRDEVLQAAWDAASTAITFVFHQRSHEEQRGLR
Protein AF-9 (Homo sapiens), P42568, UniProt P42568, whole entry, looked up: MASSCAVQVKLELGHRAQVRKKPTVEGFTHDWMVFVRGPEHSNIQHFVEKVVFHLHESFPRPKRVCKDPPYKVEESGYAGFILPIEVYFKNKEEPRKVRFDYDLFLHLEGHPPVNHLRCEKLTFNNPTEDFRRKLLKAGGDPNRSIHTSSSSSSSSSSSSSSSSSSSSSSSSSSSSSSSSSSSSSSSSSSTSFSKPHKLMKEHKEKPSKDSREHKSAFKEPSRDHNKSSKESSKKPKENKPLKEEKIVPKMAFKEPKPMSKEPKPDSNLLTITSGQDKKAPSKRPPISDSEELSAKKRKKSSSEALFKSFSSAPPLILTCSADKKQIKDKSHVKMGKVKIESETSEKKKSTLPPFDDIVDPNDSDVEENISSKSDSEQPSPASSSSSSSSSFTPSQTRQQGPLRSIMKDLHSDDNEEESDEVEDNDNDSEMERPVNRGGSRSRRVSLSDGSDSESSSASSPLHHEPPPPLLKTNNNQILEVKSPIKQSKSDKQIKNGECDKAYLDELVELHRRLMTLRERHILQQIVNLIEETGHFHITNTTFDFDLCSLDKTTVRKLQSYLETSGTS

No. | SMILES | RAD54 inh | SIRT5 inh | AF4-AF9 inh
1 | C[C@@H]1CN([C@H](C)CO)S(=O)(=O)c2ccc(C3=CCCCC3)cc2O[C@@H]1CN(C)C(=O)Nc1ccc2c(c1)OCO2 | -1 | 15* | 10
2 | C[C@H]1CN([C@@H](C)CO)S(=O)(=O)c2ccc(C3=CCCCC3)cc2O[C@@H]1CN(C)C(=O)c1ccc(F)cc1 | 4 | 16* | 9
3 | C[C@@H]1CN([C@H](C)CO)S(=O)(=O)c2ccc(C3=CCCCC3)cc2O[C@H]1CN(C)C(=O)c1ccc(F)cc1 | -8 | 14 | 9
4 | C[C@@H]1CN([C@H](C)CO)S(=O)(=O)c2ccc(C3=CCCCC3)cc2O[C@H]1CN(C)S(=O)(=O)c1ccc(F)cc1 | 7 | 30* | 1
5 | C[C@H](CO)N1C[C@H](C)[C@H](CN(C)C(=O)Nc2ccc3c(c2)OCO3)Oc2cc(C3=CCCCC3)ccc2S1(=O)=O | -1 | 14 | 9
6 | COc1ccc(C2=CC(=O)C[C@H](CN3C(=O)c4ccccc4C3=O)N(C(=O)OC(C)(C)C)O2)cc1 | -15 | -5 | 4
7 | CCC[C@H]1CC(=O)C=C(c2ccsc2)ON1C(=O)OC(C)(C)C | -16 | 21* | 9
8 | C[C@H]1CCCCO[C@@H](CN(C)Cc2ccncc2)[C@@H](C)CN([C@@H](C)CO)C(=O)c2cc(NC(=O)Nc3cccc4ccccc34)ccc2O1 | -4 | 2 | -1
9 | CCOc1cccc(/C=C/C(=O)O)c1 | -1 | -8 | 47*
10 | O=C(O)/C=C/c1cccc(OCc2ccccc2)c1 | -7 | 1 | -1
11 | COc1ccc2c3c(n(C)c2c1)[C@@H](CO)N(CC1CC1)CC31CN(S(=O)(=O)c2cccs2)C1 | . | -1 | 10
12 | COc1ccc(C(=O)C2CCCN(S(=O)(=O)C(C)C)C2)c(C)c1 (stereo unspecified) | . | 25* | 1
13 | COc1cc(NC(=O)C/C(C)=N/NC(=O)C2CCCCC2)c(OC)cc1Cl | -3 | 0 | 3
14 | Cc1noc(C)c1S(=O)(=O)Nc1ccc2c(c1)C(=O)N([C@@H](C)CO)C[C@@H](C)[C@@H](CN(C)C(=O)NC1CCCCC1)O2 | -2 | 4 | -15
15 | C(=C\c1ccc(C2[C@@H]3CN(Cc4cccnc4)C[C@H]2N3)cc1)/c1ccccc1 (stereo partly specified) | . | -3 | 33*

No. | Yeast UUG start | RAD52 anneal inh | E-selectin induc
1 | . | 17 | 0
2 | 2 | 23 | 0
3 | 8 | 17 | 0
4 | -9 | 8 | 0
5 | . | 20 | 0
6 | 0 | -27 | .
7 | -3 | -17 | 0
8 | 12 | 2 | 0
9 | -22 | -1 | 0
10 | -17 | -12 | .
11 | . | 10 | 0
12 | . | -1 | .
13 | -8 | -9 | 56*
14 | -15 | -4 | 0
15 | . | 70*! | 0

Compounds listed so far that have a thiophene ring, fused or not, in the order listed:
No. | SMILES | RAD54 inh | SIRT5 inh | AF4-AF9 inh
7 | CCC[C@H]1CC(=O)C=C(c2ccsc2)ON1C(=O)OC(C)(C)C | -16 | 21* | 9
11 | COc1ccc2c3c(n(C)c2c1)[C@@H](CO)N(CC1CC1)CC31CN(S(=O)(=O)c2cccs2)C1 | . | -1 | 10

No. | Yeast UUG start | RAD52 anneal inh | E-selectin induc
7 | -3 | -17 | 0
11 | . | 10 | 0

Next results follow:
No. | SMILES | RAD54 inh | SIRT5 inh | AF4-AF9 inh
16 | O=S(=O)(c1ccccc1F)N1C[C@@H]2N[C@H](C1)C2c1ccc(-c2cccnc2)cc1 (stereo partly specified) | . | 2 | -7
17 | C/C=C/c1ccc(C2[C@@H]3CN(Cc4ccc5c(c4)OCO5)C[C@H]2N3)cc1 (stereo partly specified) | . | 2 | 14
18 | C/C=C/c1ccc(C2[C@H]3CNC[C@@H]2N3Cc2ccc3c(c2)OCO3)cc1 (stereo partly specified) | . | . | .
19 | O=S(=O)(c1ccccc1F)N1C[C@@H]2N[C@H](C1)C2c1ccc(/C=C/c2ccccc2)cc1 (stereo partly specified) | . | 3 | 1
20 | O=S(=O)(c1ccccc1F)N1[C@@H]2CNC[C@H]1C2c1ccc(/C=C/c2ccccc2)cc1 (stereo partly specified) | . | 0 | 7
21 | CCCNC(=O)N1C[C@@H](O)COC[C@@H]2O[C@@H](CC(=O)N[C@@H]3CCN(Cc4ccccc4)C3)CC[C@H]21 | 2 | . | .
22 | C[C@@H]1CN([C@H](C)CO)C(=O)Cc2cc(NC(=O)Cn3cnnn3)ccc2O[C@@H]1CN(C)Cc1ccccc1 | -6 | -1 | 1
23 | C[C@H](NC(=O)[C@@H]1[C@@H](CO)[C@@H]2Cn3c(ccc(-c4ccccc4F)c3=O)[C@H]1N2)c1ccccc1 | -7 | -10 | -2
24 | COc1cccc(NC(=O)N2C[C@@H](O)COC[C@@H]3O[C@H](CC(=O)N(C)C)CC[C@H]32)c1 | -6 | 3 | -2
25 | O=S(=O)(c1ccccc1)N1C[C@@H]2N[C@H](C1)C2c1ccc(/C=C/c2ccccc2)cc1 (stereo partly specified) | . | 4 | -2
26 | C[C@@H]1CN([C@H](C)CO)C(=O)Cc2cc(NC(=O)NC3CCCCC3)ccc2O[C@@H]1CN(C)C(=O)Nc1ccccc1 | -10 | -4 | -4
27 | CCCCCCSc1cc(-c2nc3cnccn3c2NCCCC)ccc1OC | -13 | 27* | .
28 | Cc1cccc(CC(=O)Nc2sc(C(C)C)cc2C(=O)N2CCOCC2)c1 | -2 | -2 | -2
29 | CCC(Oc1cccc(C)c1)C(=O)Nc1ccccc1C(=O)N1CCOCC1 (stereo unspecified) | -5 | -1 | -8
30 | CCOc1ccccc1C(=O)Nc1ccc2nc3n(c(=O)c2c1)CCCCC3 | -4 | 23* | -14

No. | Yeast UUG start | RAD52 anneal inh | E-selectin induc
16 | . | 7 | 0
17 | . | 61*! | 0
18 | . | . | 0
19 | . | 74*! | 1
20 | . | 52*! | 0
21 | . | . | 0
22 | -1 | 2 | 1
23 | . | 5 | 0
24 | -10 | 7 | 0
25 | . | 87*! | 0
26 | -6 | 8 | 0
27 | -3 | -25 | .
28 | -11 | -3 | 67*
29 | 0 | -16 | 0
30 | -10 | 4 | 1

Next records.
No. | SMILES | RAD54 inh | SIRT5 inh | AF4-AF9 inh
31 | C[C@@H]1CN([C@@H](C)CO)C(=O)c2cccc(NS(C)(=O)=O)c2O[C@@H]1CN(C)Cc1ccc(C(=O)Nc2ccccc2N)cc1 | -3 | . | 7
32 | C[C@H]1CN([C@@H](C)CO)C(=O)Cc2cc(NC(=O)Nc3ccccc3)ccc2O[C@H]1CN(C)C | -4 | -5 | -2
33 | C[C@H](CO)N1C[C@H](C)[C@@H](CN(C)C)Oc2ccc(NC(=O)CCCN(C)C)cc2CC1=O | 0 | -1 | 1
34 | C[C@@H]1CN([C@H](C)CO)C(=O)Cc2cc(NC(=O)CCCN(C)C)ccc2O[C@H]1CN(C)C | -29 | -2 | -6
35 | C[C@@H]1CN([C@@H](C)CO)C(=O)Cc2cc(NC(=O)Nc3ccccc3)ccc2O[C@H]1CN(C)C | 3 | . | 1
36 | C[C@H](CO)N1C[C@H](C)[C@H](CN(C)C)Oc2ccc(NC(=O)Nc3ccccc3)cc2CC1=O | 4 | 0 | 5
37 | NC(=O)/C(=C\c1ccco1)NC(=O)c1ccco1 | -9 | . | -9

No. | Yeast UUG start | RAD52 anneal inh | E-selectin induc
31 | -9 | 1 | .
32 | -2 | -25 | 42*
33 | 1 | 11 | 204*
34 | 4 | -7 | 1
35 | 8 | -7 | -5
36 | 6 | 11 | 273*
37 | -10 | -7 | 0

Exported as tab-separated lines: 2 of the compounds above
cpd	canonical_smiles	RAD54 inh	SIRT5 inh	AF4-AF9 inh	Yeast UUG start	RAD52 anneal inh	E-selectin induc
32	C[C@H]1CN([C@@H](C)CO)C(=O)Cc2cc(NC(=O)Nc3ccccc3)ccc2O[C@H]1CN(C)C	-4	-5	-2	-2	-25	42*
33	C[C@H](CO)N1C[C@H](C)[C@@H](CN(C)C)Oc2ccc(NC(=O)CCCN(C)C)cc2CC1=O	0	-1	1	1	11	204*
